# Reference: publication PMC10386196, “A First-Class Degrader Candidate Targeting Both KRAS G12D and G12V Mediated by CANDDY Technology Independent of Ubiquitination” (Molecules, 2023)
# Sequences of proteins named here, by UniProt entry; tags and fusion partners are left off. A change or cut given only in a name is not applied to a line headed by its entry.
# UniProt P28074: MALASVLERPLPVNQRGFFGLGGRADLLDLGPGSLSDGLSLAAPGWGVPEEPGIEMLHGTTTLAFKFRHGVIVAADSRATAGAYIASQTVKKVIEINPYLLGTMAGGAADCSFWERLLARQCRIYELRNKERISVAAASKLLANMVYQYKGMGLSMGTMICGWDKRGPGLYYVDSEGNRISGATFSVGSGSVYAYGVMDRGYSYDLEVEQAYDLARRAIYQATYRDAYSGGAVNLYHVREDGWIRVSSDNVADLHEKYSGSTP
# Biological target: proteasome β5 (Homo sapiens, UniProt P28074)
# Experiment: Inhibition of proteasome β5 (chymotrypsin-like) activity, Suc-LLVY-AMC substrate
# Format: biochemical
# Details: SE in parentheses, n = 2
# Protocol: Reaction time (min) Reaction time (min)
# Figure S1. Proteasome Inhibitors Modified as Degradation Tags, Related to Figures 2
# (A) Chymotrypsin-like (β5) , trypsin-like (β2) and caspase-like (β1) activities of the pr oteasome were monitor ed by Suc- LLVY-
# AMC (β5 substrate) , Bz- VGR-AMC (β2 substr ate) and Z -LLE-AMC (β1 substrate), respectively. AMC fluorescence was
# m onitor ed by a plate reader with excitation and emission filter s of 360 nm and 460 nm, respectively (DMSO, 30 min = 1) […]
compound,measurement,value
"CC(C)C[C@H](NC(=O)CNC(=O)c1cc(Cl)ccc1Cl)B(O)O [MLN2238, reference compound]",IC50,7.2 nM
